Assays:
H1299 cells = assay: cell growth inhibition assay (ATPlite) H1299; details: 50 µM, 3 days
Experimental: (§1) A total of 2000 cells were seeded in a 96-well plate in 100 µL of the medium, treated with DMSO or compounds at indicated concentrations for 3 days. Cell viability was measured using the ATPlite 1step Luminescence Assay System (PerkinElmer) according to the manufacturer’s instructions. Surviving cells were calculated as % relative to DMSO-treated cells.
(§2) To assess the cell permeability behavior of inhibitors, the cellular effects were analyzed in H1299 and A549 cells. We treated cells with different concentration of inhibitors for 3 days. Cell viability was measured using the ATPlite 1step Luminescence Assay System (PerkinElmer) according to the manufacturer’s instructions. Surviving cells were calculated as % relative to DMSO-treated cells.

Chains of the proteins cited; added tags and fusions are not shown. Residues count along the entry.
UniProt Q9ULM3, 201-332 limits assumed: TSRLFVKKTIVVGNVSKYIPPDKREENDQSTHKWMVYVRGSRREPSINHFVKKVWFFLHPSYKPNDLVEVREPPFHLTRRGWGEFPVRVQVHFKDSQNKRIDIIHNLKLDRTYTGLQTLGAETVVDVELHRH

A549 cells [1] = assay: colony formation assay A549; details: A549, 14 days
Experimental: A549 and H1299 cells were seeded in 6-well tissue culture plates (200 cells/well) and grown for 14 days. Colonies were fixed with glutaraldehyde (6.0% v/v), stained with crystal violet (0.5% w/v) and photographed.
Cancer cells usually loss of growth control by unlimited division. We next sought to test whether our inhibitor could inhibit the proliferation in NSCLC cells. In clonogenic assay of A549 cells (FIG. 8A), compound MsKbr-bfSAP and MsKcl-bfSAP incubated cells for 14 days, then colonies are fixed by glutaraldehyde and stained by crystal violet. From the result (FIG. 8B), treated cells formed fewer colonies compared to the control cells

YEATS2 YEATS domain = YEATS2 YEATS domain (Homo sapiens, UniProt Q9ULM3); assay: competitive photo-cross-linking assay; details: toward YEATS2 YEATS, values in text
Experimental: The probes in the absence or presence of different concentrations of competitors were incubated with recombinant proteins (5 or 20 ng/µL) in binding buffer (50 mM HEPES, 150 mM NaCl, 2 mM MgCl2, 0.1% Tween-20, 20% glycerol, pH 7.5, with 50 ng/µL BSA) for 10 min at 4° C. Then, the samples were irradiated at 365 nm using UV lamp for 20 min in 96-well on ice.
To the prepared photo-cross-linking samples, we added 100 µM rhodamine-N3 for in-gel fluorescence (10 mM stock in DMSO), followed by 1 mM TCEP (freshly prepared 50 mM stock in H2O) and 100 µM TBTA (10 mM stock in DMSO); finally, the reactions were initiated by the addition of 1 mM CuSO4 (freshly prepared 50 mM stock in H2O). The reactions were incubated for 1 h at room temperature (22 to 25° C.) with regular vortexing. The reactions were quenched by adding 5 volumes of ice-cold acetone and placed at — 20° C. overnight to precipitate proteins.
Samples after protein precipitation were centrifuged at 13,000 × g for 5 min at 4° C. The supernatant was discarded, and the pellet was washed with ice-cooled acetone and air-dried for 10 min. The proteins were resuspended in 1 × LDS sample loading buffer (Invitrogen, Waltham, MA) with 50 mM DTT and heated at 95° C. for 8 min. Samples were then resolved by SDS-PAGE. The labeled proteins were visualized by scanning the gel on a Typhoon 9410 variable mode imager (excitation 532 nm, emission filter 580 nm).
YEATS domain of YEATS2 is newly identified as histone benzoylation reader. YEATS2 YEATS preferentially recognizes H3K27bz (Kd = 21.57 µM) with higher binding affinity than H3K27cr (Kd = 37.38 µM) and H3K27ac (Kd = 131.13 µM). Based on the decapeptide (H322-32K27bz), we designed a photoaffinity probe H3K27bz-Dzyne (FIG. 1A) in which the Ala24 was replaced by a diazirine-containing photo reactive amino acid (photo-leu). […] If the inhibitor can occupy the same binding pocket with probe, the fluorescent intensity would decrease (FIG. 1B).

A549 cells [2] = assay: cell growth inhibition assay (ATPlite) A549; details: 50 µM, 3 days
Experimental: as §1, §2

SMILES	inhibition of cell survival (H1299 cells)	colony formation (A549 cells [1])	IC50 (YEATS2 YEATS domain)	inhibition of cell survival (A549 cells [2])
C[C@H](NC(=O)[C@H](Cc1ccc([N+](=O)[O-])cc1)NC(=O)[C@H](CCCCNC(=O)c1cc2ccc(Br)cc2o1)NS(C)(=O)=O)C(=O)N1CCCCC1	potent inhibition	stronger inhibition on cell proliferation	520 nM	potent inhibition
C[C@H](NC(=O)[C@H](Cc1ccccc1F)NC(=O)[C@H](CCCCNC(=O)c1cc2ccc(Br)cc2o1)NS(C)(=O)=O)C(=O)N1CCCCC1	–	stronger inhibition on cell proliferation	650 nM	–
C[C@@H](C(=O)N1CCCCC1)N(C)C(=O)[C@H](Cc1ccc(C#N)cc1)NC(=O)[C@H](CCCCNC(=O)c1cc2ccc(Br)cc2o1)NS(C)(=O)=O	potent inhibition	stronger inhibition on cell proliferation	580 nM	potent inhibition
C[C@H](NC(=O)[C@H](CO)NC(=O)[C@H](CCCCNC(=O)c1cc2ccc(Br)cc2o1)NS(C)(=O)=O)C(=O)N1CCCCC1	–	–	130 nM	–
